In PubChem BioAssay (NCI):
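Five concentrations, 48 hours, 96-well plates. The concentration for 50% growth inhibition is given as GI50. At the TGI there is no net growth.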

Tests used:
Test in all cases: growth of human tumour cells (NCI), 48 h; in the data active = GI50 below about 0.43 µM; inactive = the rest
[1] = test system: RPMI-8226 leukemia
[2] = test system: SR leukemia
[3] = test system: HCC-2998 colon
[4] = test system: HT29 colon
[5] = test system: NCI-H322M lung
[6] = test system: HS 578T breast
[7] = test system: KM12 colon
[8] = test system: NCI-H522 lung
[9] = test system: HOP-62 NSCLC
[10] = test system: A549 NSCLC
[11] = test system: U251 CNS
[12] = test system: MDA-N
[13] = test system: HL-60(TB) leukemia
[14] = test system: RXF 393 renal
[15] = test system: TK-10 renal
[16] = test system: 786-0 renal
[17] = test system: SNB-75 CNS
[18] = test system: BT-549 breast
[19] = test system: IGROV1 ovarian
[20] = test system: SW-620 colon
[21] = test system: MDA-MB-231 breast
[22] = test system: HCT-116 colon
[23] = test system: NCI-H226 lung
[24] = test system: SF-539 CNS
[25] = test system: CAKI-1 renal
[26] = test system: COLO 205 colon
[27] = test system: SF-268 CNS
[28] = test system: SNB-19 CNS
[29] = test system: M14 melanoma
[30] = test system: NCI-H23 lung
[31] = test system: SK-MEL-2 melanoma
[32] = test system: OVCAR-3 ovarian
[33] = test system: NCI/ADR-RES ovarian
[34] = test system: UACC-62 melanoma
[35] = test system: SK-MEL-28 melanoma
[36] = test system: MOLT-4 leukemia
[37] = test system: UACC-257 melanoma
[38] = test system: K-562 leukemia
[39] = test system: UO-31 renal
[40] = test system: ACHN renal
[41] = test system: SK-OV-3 ovarian
[42] = test system: MALME-3M melanoma
[43] = test system: OVCAR-4 ovarian
[44] = test system: MDA-MB-435
[45] = test system: HOP-92 NSCLC
[46] = test system: EKVX NSCLC
[47] = test system: MCF7 breast
[48] = test system: SF-295 CNS
[49] = test system: SK-MEL-5 melanoma
[50] = test system: OVCAR-5 ovarian
[51] = test system: NCI-H460 lung
[52] = test system: LOX IMVI melanoma
[53] = test system: A498 renal
[54] = test system: CCRF-CEM leukemia
[55] = test system: OVCAR-8 ovarian
[56] = test system: DU-145 prostate
[57] = test system: T-47D breast
[58] = test system: PC-3 prostate
[59] = test system: SN12C renal
[60] = test system: HCT-15 colon

NC1CCCCC1.NP(=O)(O)N(CCCl)CCCl
> 100 µM: TGI [1] | TGI [2] | TGI [3] | TGI [4] | TGI [5] | TGI [6] | TGI [7] | TGI [8] | TGI [9] | TGI [10] | TGI [11] | TGI [12] | TGI [13] | TGI [14] | TGI [15] | TGI [16] | TGI [17] | TGI [18] | TGI [19] | TGI [20] | TGI [21] | TGI [22] | TGI [23] | TGI [24] | TGI [25] | TGI [26] | TGI [27] | TGI [28] | TGI [29] | TGI [30] | TGI [31] | TGI [32] | TGI [33] | TGI [34] | TGI [35] | TGI [37] | TGI [38] | TGI [39] | TGI [40] | TGI [41] | TGI [42] | TGI [43] | TGI [44] | TGI [45] | TGI [46] | TGI [47] | TGI [48] | TGI [49] | TGI [50] | TGI [52] | TGI [53] | TGI [54] | TGI [55] | TGI [56] | TGI [57] | TGI [58] | TGI [59] | TGI [60]
52.7 µM: TGI [51]
66.1 µM: TGI [36]
inactive: GI50 [1] > 100 µM | GI50 [2] 4.9 µM | GI50 [3] > 100 µM | GI50 [4] > 100 µM | GI50 [5] > 100 µM | GI50 [6] > 100 µM | GI50 [7] > 100 µM | GI50 [8] 75.5 µM | GI50 [9] 64.8 µM | GI50 [10] 93.7 µM | GI50 [11] 83.3 µM | GI50 [12] > 100 µM | GI50 [13] 39 µM | GI50 [14] > 100 µM | GI50 [15] > 100 µM | GI50 [16] 67.4 µM | GI50 [17] > 100 µM | GI50 [18] > 100 µM | GI50 [19] > 100 µM | GI50 [20] 70.9 µM | GI50 [21] > 100 µM | GI50 [22] > 100 µM | GI50 [23] > 100 µM | GI50 [24] > 100 µM | GI50 [25] 28.8 µM | GI50 [26] > 100 µM | GI50 [27] 80.9 µM | GI50 [28] 83.6 µM | GI50 [29] 62.6 µM | GI50 [30] 45.5 µM | GI50 [31] > 100 µM | GI50 [32] > 100 µM | GI50 [33] > 100 µM | GI50 [34] 73.4 µM | GI50 [35] > 100 µM | GI50 [36] 6 µM | GI50 [37] 99.5 µM | GI50 [38] > 100 µM | GI50 [39] 60.3 µM | GI50 [40] 9.84 µM | GI50 [41] 89.9 µM | GI50 [42] > 100 µM | GI50 [43] > 100 µM | GI50 [44] > 100 µM | GI50 [45] 98.9 µM | GI50 [46] > 100 µM | GI50 [47] 58.2 µM | GI50 [48] 66.5 µM | GI50 [49] > 100 µM | GI50 [50] > 100 µM | GI50 [51] 4.07 µM | GI50 [52] 69.3 µM | GI50 [53] > 100 µM | GI50 [54] 36.5 µM | GI50 [55] > 100 µM | GI50 [56] 51.1 µM | GI50 [57] > 100 µM | GI50 [58] > 100 µM | GI50 [59] 53.5 µM | GI50 [60] > 100 µM
